Values quoted from earlier work as cited in US9675592B2, “Methods and compositions for bacteria infections” (priority 2013, dated 2017).

How the values were obtained:
Conditions in all cases: cited from earlier work
[1] = system: hetero VISA isolate, hVISA 2275
[2] = system: vanA containing VRSA strain VRS1
[3] = system: vancomycin intermediate resistant Staphylococcus aureus strain, VISA 2283

CCN(CC)CCOc1ccc(C(=C(Cl)c2ccccc2)c2ccccc2)cc1 [Clo, Clomiphene]
fold decrease Van MIC [1]: 2 fold and 4 fold | fold decrease Van MIC [2]: 2 fold and 4 fold | fold decrease Van MIC [3]: 2 fold

Values joined by “and” are separate entries in the source; they are usually repeats but may differ in a detail not shown here. Equal entries are not always repeated.
